Target: Adenosine receptor A1 (Rattus norvegicus, UniProt P25099)
Assay: Displacement of [3H]R-PIA from adenosine A1 receptor of Wistar rat forebrain

Chains of the proteins cited; added tags and fusions are not shown.
UniProt P25099, whole entry: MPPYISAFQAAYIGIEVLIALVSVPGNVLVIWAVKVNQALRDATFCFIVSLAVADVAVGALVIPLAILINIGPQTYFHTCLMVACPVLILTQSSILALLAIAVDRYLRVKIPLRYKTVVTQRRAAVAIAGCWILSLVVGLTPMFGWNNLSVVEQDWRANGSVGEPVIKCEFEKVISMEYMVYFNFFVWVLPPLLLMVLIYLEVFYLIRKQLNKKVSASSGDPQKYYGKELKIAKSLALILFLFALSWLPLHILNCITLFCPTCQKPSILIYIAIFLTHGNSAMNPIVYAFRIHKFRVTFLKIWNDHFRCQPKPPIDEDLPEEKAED

Structure (SMILES): CCNC(=O)[C@H]1O[C@@H](n2cnc3c(N)nc(NCCc4ccc(CCC(=O)O)cc4)nc32)[C@H](O)[C@@H]1O [CGS-21680]
- Ki: 9.9 µM

Source: ChEMBL document CHEMBL1132368, “N-substituted adenosines as novel neuroprotective A(1) agonists with diminished hypotensive effects” (J Med Chem, 1999)
